This note sets out measurements from article PMC7784741 (Protein Science : A Publication of the Protein Society, 2020).

Amino acid sequences for entries named in this document (tags omitted). Residues count along the entry.
UniProt Q15561, 217-434: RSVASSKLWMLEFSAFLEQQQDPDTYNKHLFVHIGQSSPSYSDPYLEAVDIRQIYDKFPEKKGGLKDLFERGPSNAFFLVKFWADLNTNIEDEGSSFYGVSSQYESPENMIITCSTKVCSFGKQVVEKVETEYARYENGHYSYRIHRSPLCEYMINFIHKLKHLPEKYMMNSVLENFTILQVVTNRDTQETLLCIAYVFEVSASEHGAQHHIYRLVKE

In the assay the target is YAP-binding domain of human TEAD4, TEAD4 217-434 (human, UniProt Q15561 217-434, biotin (N-biotinylated Avi tag)). The assay is described as follows: SPR.

As to SETDLEALFNAVMNPKTANVPQTVPMRLRKLPDSFFKPP (N-acetylated; C-amidated) [synthetic peptide of the TEAD-binding domain of human YAP, residues 61-99], binding was put at a Kd of 81 nM. That is a double-digit nanomolar value.
